Experimental findings from US9109043B2 (Tokyo Institute of Technology, priority 2010, dated 2015) are described below.

Amino acid sequences for entries named in this document (tags omitted). A change or cut given only in a name is not applied to a line headed by its entry.
UniProt Q6P5E4: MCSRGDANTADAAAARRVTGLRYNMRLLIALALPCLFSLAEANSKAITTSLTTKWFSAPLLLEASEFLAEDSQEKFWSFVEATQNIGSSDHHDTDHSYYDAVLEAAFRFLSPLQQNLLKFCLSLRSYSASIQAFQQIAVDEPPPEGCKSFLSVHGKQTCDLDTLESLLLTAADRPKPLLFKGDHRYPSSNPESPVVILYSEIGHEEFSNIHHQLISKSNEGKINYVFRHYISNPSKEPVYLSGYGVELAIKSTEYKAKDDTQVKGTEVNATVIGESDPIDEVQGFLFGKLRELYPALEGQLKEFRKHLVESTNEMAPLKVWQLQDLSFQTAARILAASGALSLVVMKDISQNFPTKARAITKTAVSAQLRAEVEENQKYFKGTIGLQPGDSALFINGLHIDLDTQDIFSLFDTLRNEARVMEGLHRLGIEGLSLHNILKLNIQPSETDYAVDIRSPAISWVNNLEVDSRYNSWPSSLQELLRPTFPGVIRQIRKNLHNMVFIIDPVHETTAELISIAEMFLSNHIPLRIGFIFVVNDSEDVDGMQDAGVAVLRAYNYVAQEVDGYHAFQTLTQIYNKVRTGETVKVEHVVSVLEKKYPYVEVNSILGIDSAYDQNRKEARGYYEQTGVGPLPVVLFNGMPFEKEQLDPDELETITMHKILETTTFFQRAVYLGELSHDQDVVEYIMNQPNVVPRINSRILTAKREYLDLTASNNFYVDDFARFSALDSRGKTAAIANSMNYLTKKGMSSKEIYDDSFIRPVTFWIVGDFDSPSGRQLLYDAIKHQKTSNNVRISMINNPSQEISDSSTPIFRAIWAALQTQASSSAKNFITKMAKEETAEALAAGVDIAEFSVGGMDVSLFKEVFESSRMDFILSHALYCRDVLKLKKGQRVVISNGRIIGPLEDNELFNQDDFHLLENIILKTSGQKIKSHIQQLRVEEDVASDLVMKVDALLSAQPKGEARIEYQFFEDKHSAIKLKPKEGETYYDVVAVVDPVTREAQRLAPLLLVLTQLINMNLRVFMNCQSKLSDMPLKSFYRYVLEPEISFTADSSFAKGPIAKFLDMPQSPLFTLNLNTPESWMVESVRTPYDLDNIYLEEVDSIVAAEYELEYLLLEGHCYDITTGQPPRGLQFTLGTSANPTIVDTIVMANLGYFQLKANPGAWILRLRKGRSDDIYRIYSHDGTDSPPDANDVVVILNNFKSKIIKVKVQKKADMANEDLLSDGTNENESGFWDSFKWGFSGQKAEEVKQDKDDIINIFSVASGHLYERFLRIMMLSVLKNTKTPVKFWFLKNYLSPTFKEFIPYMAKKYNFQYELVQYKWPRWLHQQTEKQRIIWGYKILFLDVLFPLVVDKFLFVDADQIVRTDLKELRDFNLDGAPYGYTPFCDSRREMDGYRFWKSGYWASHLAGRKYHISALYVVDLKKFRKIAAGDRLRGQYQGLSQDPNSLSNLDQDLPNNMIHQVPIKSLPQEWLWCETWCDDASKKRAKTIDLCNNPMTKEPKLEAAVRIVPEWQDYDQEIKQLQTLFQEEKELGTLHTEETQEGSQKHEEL

The test system of data set [1] is NIT-1 cells in which insulin secretion regulation factor was forcibly expressed. In words: Insulin secretion by NIT-1 cells with forced expression of insulin secretion regulation factor (ELISA). The format is cell-based, mouse. The note with it: for amount of insulin secreted: FIG. 6C. On the technique in general: An ELISA detects its analyte on a solid surface through an enzyme-linked reagent.

The target of data set [2] is insulin secretion regulation factor (ATIS1) (Mus musculus, UniProt Q6P5E4). Description: Release of radiolabelled ATIS1 from insulin-immobilized agarose by test substance. The format is binding.
For data set [3], the system named is wild type B6 mice. Description: Blood insulin and glucose after sBac administration in wild type B6 mice. The note with it: FIG. 7A.
The test system of data set [4] is wild type B6 mice. In words: Continuous sBac administration for 4 weeks in wild type B6 mice: body weight and pancreas.
Setting [5] is: mice after 12 hours of fasting, relative to vehicle.
The mark [6] stands for this setting: mice immediately after food re-intake.

Take baccharin: the “promotion of insulin secretion” value in data set [1] (10 mM substance, cultured 10 minutes, FIG. 6A) was “highly promote insulin secretion”. For the same substance, the “amount of insulin secreted” value is reported as “insulin secretion promotion was noted” in data set [1] (glucose 2.8 mM in medium, highest concentration of sBac); “no changes in the amount of insulin secreted were observed” in data set [1] (glucose 2.8 mM in medium, lower concentration of sBac); “insulin secretion was significantly promoted” in data set [1] (glucose 22.2 mM in medium, highest concentration of sBac); “almost no changes in insulin secretion were noted” in data set [1] (glucose 22.2 mM in medium, low concentration of sBac). Also, in data set [2] (autoradiography, FIG. 6B), the “competition with insulin for insulin secretion regulation factor” value is recorded as “competes with insulin”. In addition, in data set [2] (silver staining, FIG. 6D), the “shading of the band of ATIS1 (interaction with ATIS1)” value is on record as “changed depending on the amount of sBac added”. Moreover, the blood glucose concentration entry in data set [3] (setting [5]) is “no changes”; in data set [3] (setting [6]) it was “blood glucose concentration correspondingly decreased”. For the same substance, the blood insulin concentration entry was “no changes” in data set [3] (setting [5]) and “increased blood insulin concentration depending on the sBac concentration” in data set [3] (setting [6]). Further, the “size of pancreatic β cells” value in data set [4] (85 and 850 nmol/30 g body weight, day 28, FIG. 7C) is on record as “No changes in the size of pancreatic β cells”. Also, the “ratio of the Langerhans cells relative to the pancreas” value in data set [4] (85 and 850 nmol/30 g body weight, day 28, FIG. 7D) is given as “no changes in the ratio”. Further, the “changes in body weight with time” value in data set [4] (85 or 850 nmol/30 g body weight, 4 weeks (28 days), vs vehicle, FIG. 7B) is “no mice that received sBac exhibited changes in body weight”.
